The assay deals with cloned human dopamine D3 receptors (Homo sapiens, UniProt P35462). The experiment in a line: [N-Methyl-3H]Spiroperidol binding to cloned human dopamine D3 receptors (Protocol 1). The text has this:
[N-Methyl-^3H]Spiroperidol Binding to Cloned Human Dopamine D3 Receptors
This assay measures the in vitro activity of compounds on cloned human dopamine (D3) receptors and predicts the direct dopamine-blocking properties of putative neuropsychiatric agents at human dopamine D3 receptors.
The D3 gene was isolated from a human striatal cDNA library (Stratagene). The gene was sequenced and sub-cloned into the expression vector RC/RSV (Invitrogen). CHO (Chinese Hamster Ovary) cells were stably transfected with 10 μg of the D3/RSV plasmid using the DOTAP method from Boehringer Mannheim and 72 clones that were G418 resistant were isolated. Using mRNA and binding displacement data a single high expressing clone was identified. This clone was then grown in large batches for the purpose of developing a 96 well format assay.
• 1. One plate (10 cm) with approximately 2-3 million D3 cells per plate is incubated with 1 ml of Trypsin-EDTA at room temperature for ˜2 min or until cells have lifted off plates. Four ml of Ham's F12+10% Fetal Bovine Serum+1% Penicillin/Streptomycin+G418 (400 μg/ml) medium are added to resuspend cells and 1 ml of this is added to each large plate (15 cm) containing 19 ml of the-same medium as mentioned above. • 2. The 5 large plates are incubated at 37° C.+5% CO2 for ˜3 days or until the cells are confluent. • 3. After these plates are confluent, they are split into 10 large plates. Medium is aspirated off, 2 ml of Trypsin-EDTA are added to each plate and plates are incubated at RT for 2 min or until cells have lifted off the plate. Eight ml of the F12 medium (same medium as #1 above) are added to each plate (10 ml total) to resuspend the cells and 5 ml are transferred to the 2 new plates containing 15 ml of the F12 media. • 4. The 10 large plates are incubated at 37° C.+5% CO2 for ˜2 days or until the cells are confluent. • 5. The 10 large plates are split into 60 large plates (using Trypsin-EDTA as #3 except 4 ml of F12 medium are added to resuspend cells and 1 ml is aliquoted to 6 new plates containing 19 ml of F12 medium each). • 6. Plates are incubated at […]+5% CO2 for ˜3 days or until cell are confluent. • 7. The 60 large plates are then split into 60 roller bottles (100-150 million cells/bottle). Medium is aspirated off, 2 ml of Trypsin-EDTA are added to each plate and incubated at RT for ˜2 minutes or until cells have lifted off plates. Eight ml of F12 medium are added to each plate to resuspend cells and the entire 10 ml are added to 1 roller bottle containing 90 ml of the F12 medium. • 8. The 60 roller bottles are immediately placed on their sides and transferred to the roller bottle incubator. They are incubated at 37° C.+5% CO2 for ˜3-5 days. Cells are spun at 30-40% motor speed in the Forma incubator. • 9. Medium is poured off and cells are washed 2× in PBS. • 10. Cells are then scraped off in 20 ml of PBS and the bottles are rinsed again with 5 ml of PBS to remove any remaining cells. Cells are stored on ice before membrane preparation. • 11. The yield for 60 D3 roller bottles has varied from ˜260-500 mg. • Note: All tissue culture reagents are from Gibco-BRL. C. Membrane Preparation
The cells are harvested into 250 ml centrifuge tubes with 100 volumes of cold phosphate buffered saline (PBS) and spun down (1200×G for 10 min at 4° C.). The medium is removed and 100 ml PBS are added to each centrifuge tube, cells are resuspend and spun down again. The PBS is removed and the final pellet is homogenized in an appropriate volume of 10% DMSO with a polytron on ice at a medium setting.
1. 0.5M Tris Buffer, pH 7.7 • a) 44.4 g Tris HCl 26.5 g Tris Base q.s. to 1 Liter (0.5 M Tris buffer, pH 7.7 at 37° C.) • b) make a 1:10 dilution in distilled H2O (0.05 M. Tris buffer, pH 7.7) 2. Tris Buffer Containing Physiological Salts • a) Stock buffer • NaCl 7.014 g • KCl 0.372 g • CaCl2 0.222 g • MgCl2 0.204 g • q.s. To 100 ml with 0.5 M. Tris Buffer • b) Dilute 1:10 in distilled H2O […]

Amino acid sequences for entries named in this document (tags omitted).
UniProt P35462, whole entry: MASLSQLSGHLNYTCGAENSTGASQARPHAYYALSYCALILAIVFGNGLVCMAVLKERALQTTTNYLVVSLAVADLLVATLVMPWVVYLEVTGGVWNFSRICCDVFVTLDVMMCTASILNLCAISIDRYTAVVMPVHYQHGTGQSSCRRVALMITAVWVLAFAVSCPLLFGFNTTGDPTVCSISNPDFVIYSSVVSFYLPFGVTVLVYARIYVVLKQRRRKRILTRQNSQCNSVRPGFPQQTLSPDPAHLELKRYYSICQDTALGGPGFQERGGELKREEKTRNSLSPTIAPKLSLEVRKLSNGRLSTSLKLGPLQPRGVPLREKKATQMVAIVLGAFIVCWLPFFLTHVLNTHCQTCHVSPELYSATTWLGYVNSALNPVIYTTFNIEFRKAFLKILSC

[1] abbreviates: read-out: D3K1, Table 2, tested form: hydrochloride.
Where [2] appears, read: read-out: D3Ki, the 13th table, unit inferred, tested form: maleate.

Where two headings read alike, the source gives them in different places.

Take `CCOc1ccc(C(=O)NCCCCN2CCN(c3c(F)sc4cc(F)ccc34)CC2)cc1`: the Ki (read-out: D3K1, Table 2) was determined as 1.82 nM.
For `Cc1cccc2cc(C(=O)NCCCCN3CCCN(c4csc5cc(F)ccc45)CC3)oc12`, the Ki (read-out: D3K1, Table 2) was 3.1 nM and the Ki (read-out: D3 Ki, the 16th table) was 3.1 nM.
As to `CC1(C)[C@@H](CNC(=O)CCc2ccc([N+](=O)[O-])cc2)[C@@H]1CN1CCN(c2csc3cc(C(F)(F)F)ccc23)CC1`, the Ki (read-out: D3K1) is 51 nM.
As for `O=C(NCCCCN1CCN(c2csc3cc(C(F)(F)F)ccc23)CC1)c1ccc(O)cc1`, the Ki (read-out: D3K1, Table 2, tested form: hydrochloride hydrate) was 3.49 nM.
On to `O=C(NCCCCN1CCN(c2c(F)sc3cc(F)ccc23)CC1)c1cc2ccccc2s1`, for which the Ki under setting [1] amounted to 3.01 nM.
For `O=C(NCCC[C@H](CO)N1CCN(c2csc3cc(C(F)(F)F)ccc23)CC1)c1ccccc1-n1cccc1`, the Ki (read-out: D3K1, Table 2) was found to be 243 nM.
As to `O=C(NCCCCN1CCN(c2c(F)sc3cc(F)ccc23)CC1)c1ccc2ccccc2c1`, the Ki (read-out: D3K1, Table 2) stood at 0.958 nM.
Regarding `Cc1ccc(C(=O)NCCC[C@H](CO)N2CCN(c3csc4cc(C(F)(F)F)ccc34)CC2)cc1`, the Ki (read-out: D3K1, Table 2) came out at 353 nM.
Take `O=C(NCCC[C@H](CO)N1CCN(c2csc3cc(C(F)(F)F)ccc23)CC1)c1cc2ccccc2s1`: the Ki (read-out: D3K1, Table 2) was found to be 355 nM.
Still for that read-out and setting: the figure for `O=C(NCCC[C@@H](CO)N1CCN(c2csc3cc(C(F)(F)F)ccc23)CC1)c1cc2ccccc2s1` is 187 nM.
For `O=C(NCC(CO)CCN1CCN(c2csc3cc(C(F)(F)F)ccc23)CC1)c1ccccc1F` (centres unmarked), the Ki (read-out: D3K1, Table 2) worked out at 325 nM.
`COc1ccc(C(=O)NCCC[C@@H](CO)N2CCN(c3csc4cc(C(F)(F)F)ccc34)CC2)cc1`: the Ki (read-out: D3K1, Table 2) is 160 nM.
Regarding `COc1ccc(OC)c(C(=O)NCCC(CO)CN2CCN(c3csc4cc(C(F)(F)F)ccc34)CC2)c1` (centres unmarked), the Ki (read-out: D3K1, Table 2) is 849 nM.
The same measure, in the same setting: the figure for `COc1ccc2[nH]c(C(=O)NC/C=C\CN3CCN(c4csc5cc(C(F)(F)F)ccc45)CC3)cc2c1` is 10 nM; for `COc1ccc(C(=O)NCCC(CO)CN2CCN(c3csc4cc(C(F)(F)F)ccc34)CC2)cc1` (centres unmarked) it is 267 nM; for `CC(=O)Nc1ccc(C(=O)NCCC(CO)CN2CCN(c3csc4cc(C(F)(F)F)ccc34)CC2)cc1` (centres unmarked) it is 547 nM.
For the compound `CCOc1ccc(C(=O)NCCCCN2CCN(c3csc4cc(C(F)(F)F)ccc34)CC2)cc1` [compound 815541], under setting [1], the Ki amounted to 3.45 nM.
`COc1ccc(C(=O)NCC(CO)CCN2CCN(c3csc4cc(C(F)(F)F)ccc34)CC2)cc1` (centres unmarked): where the note is “read-out: D3K1, Table 2”, the Ki worked out at 101 nM.
Consider `COc1ccc(C(=O)NCCCCN2CCN(c3c(F)sc4cc(F)ccc34)CC2)cc1`, for which the Ki (read-out: D3K1, Table 2) amounted to 0.826 nM.
With `O=C(NCCC[C@@H](CO)N1CCN(c2csc3cc(C(F)(F)F)ccc23)CC1)c1cccc2ccccc12`, the Ki (read-out: D3K1, Table 2) came to 222 nM.
As to `O=C(NCCC[C@H](CO)N1CCN(c2csc3cc(C(F)(F)F)ccc23)CC1)c1cnnc2ccccc12`, the Ki (read-out: D3K1, Table 2) is 406 nM.
As for `CCCCOc1ccc(C(=O)NCCCCN2CCN(c3c(Cl)sc4cc(F)ccc34)CC2)cc1`, the Ki (read-out: D3K1) worked out at 9.6 nM.
For the compound `CC(=O)Nc1ccc(C(=O)NCC(CO)CCN2CCN(c3csc4cc(C(F)(F)F)ccc34)CC2)cc1` (centres unmarked), the Ki (read-out: D3K1, Table 2) was 128 nM.
For `COc1ccc2[nH]c(C(=O)NCCCCN3CCCN(c4csc5cc(F)ccc45)CC3)cc2c1` [S977820], the Ki under setting [2] stood at 1.9 nM.
As to `CC1=C(C(=O)NCCCCCN2CCCN(c3csc4cc(F)ccc34)CC2)Cc2ccccc21`, the Ki (read-out: D3Ki, the 13th table, unit inferred) is 11.7 nM.
Consider `CC1=C(C(=O)NCCCCN2CCCN(c3csc4cc(F)ccc34)CC2)Cc2ccccc21` [S977827], for which the Ki under setting [2] amounted to 1.22 nM.
As to `O=C(NCC(CO)CCN1CCN(c2csc3cc(C(F)(F)F)ccc23)CC1)c1ccc(-c2ccccc2)cc1` (centres unmarked), for the setting “read-out: D3K1, Table 2”, the Ki turned out to be 181 nM.
For the compound `Cc1ccc(C(=O)NCCC[C@@H](CO)N2CCN(c3csc4cc(C(F)(F)F)ccc34)CC2)cc1`, the Ki (read-out: D3K1, Table 2) is 349 nM.
For the compound `O=C(NCCCCN1CCN(c2c(-c3ccccc3)sc3cc(C(F)(F)F)ccc23)CC1)c1ccc2c(c1)OCO2`, the Ki (read-out: D3K1, Table 2) came out at 157 nM.
Turning to `O=C(NCCC[C@@H](CO)N1CCN(c2csc3cc(C(F)(F)F)ccc23)CC1)c1ccc(Cl)cc1`, the Ki (read-out: D3K1, Table 2) worked out at 238 nM.
As to `O=C(NCCC[C@@H](CO)N1CCN(c2csc3cc(C(F)(F)F)ccc23)CC1)c1cc2ccccc2o1`, the Ki (read-out: D3K1, Table 2) came to 230 nM.
Regarding `COc1ccc(C(=O)NCCC[C@H](CO)N2CCN(c3csc4cc(C(F)(F)F)ccc34)CC2)cc1`, the Ki (read-out: D3K1, Table 2) was found to be 109 nM.
With `COc1ccc(C(=O)NCCCCN2CCN(c3csc4cc(C(F)(F)F)ccc34)CC2)cc1`, the Ki (read-out: D3K1, Table 2, tested form: HCl) is 2.9 nM.
For `O=C(NCCC[C@@H](CO)N1CCN(c2csc3cc(C(F)(F)F)ccc23)CC1)c1ccc(O)c(CN2CCOCC2)c1`, the Ki (read-out: D3K1, Table 2) was 319 nM.
In the case of `O=C(NCCC[C@@H](CO)N1CCN(c2csc3cc(C(F)(F)F)ccc23)CC1)c1c(F)cc(F)cc1F`, the Ki (read-out: D3K1, Table 2) was found to be 436 nM.
For `O=C(NCCC[C@H](CO)N1CCN(c2csc3cc(C(F)(F)F)ccc23)CC1)c1c(F)cc(F)cc1F`, the Ki (read-out: D3K1, Table 2) is 191 nM.
Still for that read-out and setting: then `O=C(NCCC[C@H](CO)N1CCN(c2csc3cc(C(F)(F)F)ccc23)CC1)c1cccc2ccccc12`, with 464 nM.
For the compound `COc1ccc2[nH]c(C(=O)NC[C@@H]3CC[C@H]3CN3CCN(c4csc5cc(C(F)(F)F)ccc45)CC3)cc2c1` (relative stereo), the Ki (read-out: D3K1) was found to be 71 nM.
Turning to `CCCCOc1ccc(C(=O)NCCCCN2CCN(c3c(-c4ccccc4)sc4cc(F)ccc34)CC2)cc1`, under “read-out: D3K1, Table 2”, the Ki was found to be 326 nM.
For the compound `O=C(NCCC[C@@H](CO)N1CCN(c2csc3cc(C(F)(F)F)ccc23)CC1)c1cc2ccccc2[nH]1`, the Ki (read-out: D3K1, Table 2) amounted to 175 nM.
For `O=C(NCCC[C@H](CO)N1CCN(c2csc3cc(C(F)(F)F)ccc23)CC1)c1ccc2[nH]ccc2c1`, for the setting “read-out: D3K1, Table 2”, the Ki is 547 nM.
Consider `CC(=O)Nc1cccc(C(=O)NCC(CO)CCN2CCN(c3csc4cc(C(F)(F)F)ccc34)CC2)c1` (centres unmarked), for which the Ki (read-out: D3K1, Table 2) was 142 nM.
For the compound `CC1[C@@H](CNC(=O)c2ccc3ccccc3c2)[C@@H]1CN1CCN(c2csc3cc(C(F)(F)F)ccc23)CC1` (some centres unmarked), under “read-out: D3K1”, the Ki was 40.2 nM.
With `Cc1c(C(=O)NCCC[C@H](CO)N2CCN(c3csc4cc(C(F)(F)F)ccc34)CC2)cnn1-c1ccccc1`, the Ki (read-out: D3K1, Table 2) is 837 nM.
Turning to `O=C(NCC(CO)CCN1CCN(c2csc3cc(C(F)(F)F)ccc23)CC1)c1ccc(Cl)cc1` (centres unmarked), the Ki (read-out: D3K1, Table 2) stood at 191 nM.
Consider `O=C(NCCC[C@@H](CO)N1CCN(c2csc3cc(C(F)(F)F)ccc23)CC1)c1ccc(Br)cc1`, for which the Ki (read-out: D3K1, Table 2) was found to be 264 nM.
For `CC1=C(C(=O)N[C@@H](CO)CCCN2CCN(c3csc4cc(C(F)(F)F)ccc34)CC2)Cc2ccccc21`, the Ki reads like this: (read-out: D3K1) 293 nM; (read-out: D3K1, Table 2) 293 nM; (read-out: D3 Ki, the 14th table) 293 nM.
In the case of `O=C(NCCC(CO)CN1CCN(c2csc3cc(C(F)(F)F)ccc23)CC1)c1ccc(Cl)cc1` (centres unmarked), for the setting “read-out: D3K1, Table 2”, the Ki stood at 442 nM.
As to `O=C(NCCC[C@@H](CO)N1CCN(c2csc3cc(C(F)(F)F)ccc23)CC1)c1ccc2[nH]ccc2c1`, the Ki (read-out: D3K1, Table 2) was 318 nM.
Consider `O=C(NCCC(CO)CN1CCN(c2csc3cc(C(F)(F)F)ccc23)CC1)c1ccccc1CCc1ccccc1` (centres unmarked), for which the Ki (read-out: D3K1, Table 2) came to 414 nM.
`O=C(NCCCCN1CCN(c2c(F)sc3cc(F)ccc23)CC1)c1ccc(Br)cc1`: the Ki (read-out: D3K1, Table 2) was 2.52 nM.
In the case of `O=C(NCCC[C@@H](CO)N1CCN(c2csc3cc(C(F)(F)F)ccc23)CC1)c1ccc(-c2ccccc2)cc1`, where the note is “read-out: D3K1, Table 2”, the Ki is 559 nM.
As to `CC1[C@@H](CNC(=O)c2ccc(F)cc2)[C@@H]1CN1CCN(c2csc3cc(C(F)(F)F)ccc23)CC1` (some centres unmarked), the Ki (read-out: D3K1) was determined as 31 nM.

Source of the values: US7550469B2, “Heterocyclic amide derivatives and their use as dopamine D3 receptor ligands” (Aventis Pharmaceuticals Inc., priority 2001, dated 2009).
